This test addresses isolated polymerase domain (I1780-V2590) of DNA polymerase theta (Polθ) (Homo sapiens (Human), UniProt O75417). Put plainly: biochemical.

By UniProt entry, the sequences of proteins in these tests, tags left out. Residues count along the entry.
UniProt O75417, 1780-2590: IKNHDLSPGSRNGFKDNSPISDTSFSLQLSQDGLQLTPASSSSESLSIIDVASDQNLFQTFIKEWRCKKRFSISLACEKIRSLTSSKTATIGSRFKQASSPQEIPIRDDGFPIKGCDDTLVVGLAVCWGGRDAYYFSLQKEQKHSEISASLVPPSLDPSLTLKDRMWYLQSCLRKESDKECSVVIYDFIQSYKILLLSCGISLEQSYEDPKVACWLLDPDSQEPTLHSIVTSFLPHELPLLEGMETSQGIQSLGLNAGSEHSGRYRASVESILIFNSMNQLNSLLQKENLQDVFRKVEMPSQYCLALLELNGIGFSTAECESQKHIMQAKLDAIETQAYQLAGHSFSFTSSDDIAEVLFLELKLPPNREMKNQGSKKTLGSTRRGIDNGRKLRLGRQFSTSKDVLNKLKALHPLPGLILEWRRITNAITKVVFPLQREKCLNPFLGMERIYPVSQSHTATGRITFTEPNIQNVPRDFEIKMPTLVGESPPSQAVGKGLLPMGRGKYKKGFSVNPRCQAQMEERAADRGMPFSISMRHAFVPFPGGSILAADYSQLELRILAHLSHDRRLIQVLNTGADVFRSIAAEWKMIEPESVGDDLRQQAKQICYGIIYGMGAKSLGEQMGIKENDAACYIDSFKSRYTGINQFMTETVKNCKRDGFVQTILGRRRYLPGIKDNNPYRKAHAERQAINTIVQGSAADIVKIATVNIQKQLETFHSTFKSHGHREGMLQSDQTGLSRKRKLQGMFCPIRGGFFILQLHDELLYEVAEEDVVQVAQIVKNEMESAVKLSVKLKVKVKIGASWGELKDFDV

For orientation: IC50 means the point on the concentration scale where inhibition reaches its midpoint. Low values mean greater potency in that assay, high ones weaker potency in that assay. In turn, `Cc1ccnc(Cn2c(-c3ccc(N4CCNCC4=O)cc3Cl)nc3c(OC4(C)CC4)ncnc32)c1` [Example T202, 1-(3-chloro-4-(6-(1-methylcyclopropoxy)-9-((4-methylpyridin-2-yl)methyl)-9H-purin-8-yl)phenyl)piperazin-2-one] showed an IC50 of 39.8 nM.
To `Cc1ccnc(Cn2c(-c3ccc(OCCN(C)C)cc3Cl)nc3c(OC4(C#N)CC4)ncnc32)c1` [Example T203, 1-((8-(2-chloro-4-(2-(dimethylamino)ethoxy)phenyl)-9-((4-methylpyridin-2-yl)methyl)-9H-purin-6-yl)oxy)cyclopropane-1-carbonitrile] belongs 6.31 nM.
In the case of `Cc1ccnc(Cn2c(-c3ccc(N4CC(C(N)=O)C4)cc3Cl)nc3c(OC4(C)CC4)ncnc32)c1` [Example T204, 1-(3-chloro-4-(6-(1-methylcyclopropoxy)-9-((4-methylpyridin-2-yl)methyl)-9H-purin-8-yl)phenyl)azetidine-3-carboxamide], the IC50 was 7.94 nM.
`Cc1ccnc(Cn2c(-c3ccc(OC4CN(C(N)=O)C4)cc3Cl)nc3c(OC4(C)CC4)ncnc32)c1` [Example T205, 3-(3-chloro-4-(6-(1-methylcyclopropoxy)-9-((4-methylpyridin-2-yl)methyl)-9H-purin-8-yl)phenoxy)azetidine-1-carboxamide]: the half-maximal inhibitory concentration (IC50) is 6.31 nM.
`CC1(Oc2ncnc3c2nc(-c2ccc(OCCN4CC(O)C4)cc2Cl)n3Cc2cc(Cl)ccn2)CC1` [Example T206, 1-(2-(3-chloro-4-(9-((4-chloropyridin-2-yl)methyl)-6-(1-methylcyclopropoxy)-9H-purin-8-yl)phenoxy)ethyl)azetidin-3-ol]: the IC50 is 10 nM.
In turn, `CC1(Oc2ncnc3c2nc(-c2ccc(OCCN4CCNCC4)cc2Cl)n3Cc2ncc(C(F)(F)F)s2)CC1` [Example T207, 2-((8-(2-chloro-4-(2-(piperazin-1-yl)ethoxy)phenyl)-6-(1-methylcyclopropoxy)-9H-purin-9-yl)methyl)-5-(trifluoromethyl)thiazole] had an IC50 of 7.94 nM.
`Cc1ccnc(Cn2c(-c3ccc(O[C@H]4CCNC4)cc3Cl)nc3c(OC4(C)CC4)ncnc32)c1` [Example T208, (S)-8-(2-chloro-4-(pyrrolidin-3-yloxy)phenyl)-6-(1-methylcyclopropoxy)-9-((4-methylpyridin-2-yl)methyl)-9H-purine] gave an IC50 of 2.51 nM.
In turn, `Cc1ccnc(Cn2c(-c3ccc(CN4CC(O)C4)cc3Cl)nc3c(OC4(C)CC4)ncnc32)c1` [Example T209, 1-(3-chloro-4-(6-(1-methylcyclopropoxy)-9-((4-methylpyridin-2-yl)methyl)-9H-purin-8-yl)benzyl)azetidin-3-ol] had an IC50 of 5.01 nM.
Regarding `Cc1ccnc(Cn2c(-c3ccc(CC(=O)N(C)C)cc3Cl)nc3c(OC4(C)CC4)ncnc32)c1` [Example T210, 2-(3-chloro-4-(6-(1-methylcyclopropoxy)-9-((4-methylpyridin-2-yl)methyl)-9H-purin-8-yl)phenyl)-N,N-dimethylacetamide], inhibition was half-maximal at 3.16 nM (IC50).
Turning to `Cc1ccnc(Cn2c(-c3ccc(C(=O)NC(C)C)cc3Cl)nc3c(OC4(C)CC4)ncnc32)c1` [Example T211, 3-chloro-N-isopropyl-4-(6-(1-methylcyclopropoxy)-9-((4-methylpyridin-2-yl)methyl)-9H-purin-8-yl)benzamide], 20 nM corresponded to half-maximal inhibition (IC50).
`CC(=O)NCCc1ccc(-c2nc3c(OC4(C)CC4)ncnc3n2Cc2cc(C)ccn2)c(Cl)c1` [Example T212, N-(3-chloro-4-(6-(1-methylcyclopropoxy)-9-((4-methylpyridin-2-yl)methyl)-9H-purin-8-yl)phenethyl)acetamide] showed an IC50 of 6.31 nM.
Regarding `CCNC(=O)Cc1ccc(-c2nc3c(OC4(C)CC4)ncnc3n2Cc2cc(C)ccn2)c(Cl)c1` [Example T213, 2-(3-chloro-4-(6-(1-methylcyclopropoxy)-9-((4-methylpyridin-2-yl)methyl)-9H-purin-8-yl)phenyl)-N-ethylacetamide], the IC50 was 6.31 nM.
`CNC(=O)CCc1ccc(-c2nc3c(OC4(C)CC4)ncnc3n2Cc2cc(C)ccn2)c(Cl)c1` [Example T214, 3-(3-chloro-4-(6-(1-methylcyclopropoxy)-9-((4-methylpyridin-2-yl)methyl)-9H-purin-8-yl)phenyl)-N-methylpropanamide] showed an IC50 of 6.31 nM.
For `Cc1cnc(Cn2c(-c3ccc(OC4CC5(CNC5)C4)cc3Cl)nc3c(OC4(C)CC4)ncnc32)s1` [Example T215, 2-((8-(4-((2-azaspiro[3.3]heptan-6-yl)oxy)-2-chlorophenyl)-6-(1-methylcyclopropoxy)-9H-purin-9-yl)methyl)-5-methylthiazole] the value was 7.94 nM; for `Cc1ccnc(Cn2c(-c3ccc(OCC(=O)N(C)C)cc3Cl)nc3c(OC4(C)CC4)ncnc32)c1` [Example T216, 2-(3-chloro-4-(6-(1-methylcyclopropoxy)-9-((4-methylpyridin-2-yl)methyl)-9H-purin-8-yl)phenoxy)-N,N-dimethylacetamide], 7.94 nM.
As for `Cc1ccnc(Cn2c(-c3ccc(C(=O)NCCCO)cc3Cl)nc3c(OC4(C)CC4)ncnc32)c1` [Example T217, 3-chloro-N-(3-hydroxypropyl)-4-(6-(1-methylcyclopropoxy)-9-((4-methylpyridin-2-yl)methyl)-9H-purin-8-yl)benzamide], the concentration for half-maximal inhibition (IC50) was 15.8 nM.
For the molecule `Cc1ccnc(Cn2c(-c3ccc(C(=O)NC[C@H](C)O)cc3Cl)nc3c(OC4(C)CC4)ncnc32)c1` [Example T218, (S)-3-chloro-N-(2-hydroxypropyl)-4-(6-(1-methylcyclopropoxy)-9-((4-methylpyridin-2-yl)methyl)-9H-purin-8-yl)benzamide], the IC50 was 7.94 nM.
`CC(=O)NCCOc1ccc(-c2nc3c(OC4(C)CC4)ncnc3n2Cc2cc(C)ccn2)c(Cl)c1` [Example T219, N-(2-(3-chloro-4-(6-(1-methylcyclopropoxy)-9-((4-methylpyridin-2-yl)methyl)-9H-purin-8-yl)phenoxy)ethyl)acetamide] gave an IC50 of 10 nM.
Regarding `Cc1ccnc(Cn2c(-c3ccc(C(=O)N(C)CCO)cc3Cl)nc3c(OC4(C)CC4)ncnc32)c1` [Example T220, 3-chloro-N-(2-hydroxyethyl)-N-methyl-4-(6-(1-methylcyclopropoxy)-9-((4-methylpyridin-2-yl)methyl)-9H-purin-8-yl)benzamide], half-maximal inhibition (IC50) required 25.1 nM.
Take `CCNC(=O)COc1ccc(-c2nc3c(OC4(C)CC4)ncnc3n2Cc2cc(C)ccn2)c(Cl)c1` [Example T221, 2-(3-chloro-4-(6-(1-methylcyclopropoxy)-9-((4-methylpyridin-2-yl)methyl)-9H-purin-8-yl)phenoxy)-N-ethylacetamide]: it took 7.94 nM to reach half-maximal inhibition (IC50).
`COC(=O)NCCc1ccc(-c2nc3c(OC4(C)CC4)ncnc3n2Cc2cc(C)ccn2)c(Cl)c1` [Example T222, methyl (3-chloro-4-(6-(1-methylcyclopropoxy)-9-((4-methylpyridin-2-yl)methyl)-9H-purin-8-yl)phenethyl)carbamate] showed an IC50 of 3.16 nM.
Turning to `Cc1ccnc(Cn2c(-c3ccc(CCNC(=O)CO)cc3Cl)nc3c(OC4(C)CC4)ncnc32)c1` [Example T223, N-(3-chloro-4-(6-(1-methylcyclopropoxy)-9-((4-methylpyridin-2-yl)methyl)-9H-purin-8-yl)phenethyl)-2-hydroxyacetamide], half-maximal inhibition (IC50) required 6.31 nM.
`Cc1ccnc(Cn2c(-c3ccc(CC(=O)NCCO)cc3Cl)nc3c(OC4(C)CC4)ncnc32)c1` [Example T224, 2-(3-chloro-4-(6-(1-methylcyclopropoxy)-9-((4-methylpyridin-2-yl)methyl)-9H-purin-8-yl)phenyl)-N-(2-hydroxyethyl)acetamide]: the midpoint of inhibition, the IC50, lay at 6.31 nM.
For `Cc1ccnc(Cn2c(-c3ccc(N4CCS(=O)(=O)CC4)cc3Cl)nc3c(OC4(C)CC4)ncnc32)c1` [Example T225, 4-(3-chloro-4-(6-(1-methylcyclopropoxy)-9-((4-methylpyridin-2-yl)methyl)-9H-purin-8-yl)phenyl)thiomorpholine 1,1-dioxide] the value was 7.94 nM.
As to `Cc1ccnc(Cn2c(-c3ccc(OCC(=O)NCCO)cc3Cl)nc3c(OC4(C)CC4)ncnc32)c1` [Example T226, 2-(3-chloro-4-(6-(1-methylcyclopropoxy)-9-((4-methylpyridin-2-yl)methyl)-9H-purin-8-yl)phenoxy)-N-(2-hydroxyethyl)acetamide], half-maximal inhibition (IC50) required 10 nM.
For `Cc1ccnc(Cn2c(-c3ccc(OCCNC(=O)CO)cc3Cl)nc3c(OC4(C)CC4)ncnc32)c1` [Example T227, N-(2-(3-chloro-4-(6-(1-methylcyclopropoxy)-9-((4-methylpyridin-2-yl)methyl)-9H-purin-8-yl)phenoxy)ethyl)-2-hydroxyacetamide], the IC50 is 5.01 nM.
As to `COC(=O)NCCOc1ccc(-c2nc3c(OC4(C)CC4)ncnc3n2Cc2cc(C)ccn2)c(Cl)c1` [Example T228, methyl (2-(3-chloro-4-(6-(1-methylcyclopropoxy)-9-((4-methylpyridin-2-yl)methyl)-9H-purin-8-yl)phenoxy)ethyl)carbamate], the IC50 is 3.16 nM.
Regarding `CC1(Oc2ncnc3c2nc(-c2ccc(N4CCC(N)CC4)cc2Cl)n3Cc2cc(Cl)ccn2)CC1` [Example T230, 1-(3-chloro-4-(9-((4-chloropyridin-2-yl)methyl)-6-(1-methylcyclopropoxy)-9H-purin-8-yl)phenyl)piperidin-4-amine], the IC50 was 5.01 nM.
`CN(C)CCCOc1ccc(-c2nc3c(OC4(C)CC4)ncnc3n2Cc2cc(Cl)ccn2)c(F)c1` [Example T231, 3-(4-(9-((4-chloropyridin-2-yl)methyl)-6-(1-methylcyclopropoxy)-9H-purin-8-yl)-3-fluorophenoxy)-N,N-dimethylpropan-1-amine]: the IC50 is 3.16 nM.
In the case of `Cc1ccnc(Cn2c(-c3ccc(OCCOCCO)cc3Cl)nc3c(OC4(C)CC4)ncnc32)c1` [Example T233, 2-(2-(3-chloro-4-(6-(1-methylcyclopropoxy)-9-((4-methylpyridin-2-yl)methyl)-9H-purin-8-yl)phenoxy)ethoxy)ethan-1-ol], the IC50 was 3.98 nM.

The record behind these values is patent US20250195530A1, “POLQ INHIBITORS” (ASTRAZENECA AB, priority 2022, published 2025).
